Results as given in patent publication US10471046B2, “Method for treating, preventing, or reducing the risk of skin infection” (Melinta Subsidiary Corp., priority 2014, dated 2019).

How the values were obtained:
[1] = test system: B. thetaiotaomicron; experiment: microbe, parasite or virus in culture; assay type: cell-based; conditions: Bacteroides thetaiotaomicron, ATCC29741, read-out: MIC, agar dilution
[2] = test system: B. thetaiotaomicron; experiment: microbe, parasite or virus in culture; assay type: cell-based; conditions: Bacteroides thetaiotaomicron, ATCC29741, read-out: MIC, broth microdilution

Row | SMILES | MIC [1] [µg/mL] | MIC [2] [µg/mL]
1 | CCC[C@@H]1C[C@@H](C(=O)N[C@@H]([C@H]2O[C@H](SC)[C@H](O)[C@@H](O)[C@H]2O)[C@H](C)Cl)N(C)C1 [Clindamycin, clindamycin] | 8 (≈ 18.8 µM) | 8 (≈ 18.8 µM)
2 | CC(=O)NC[C@H]1CN(c2ccc(N3CCOCC3)c(F)c2)C(=O)O1 [Linezolid, linezolid] | 4 (≈ 11.9 µM) | 4 (≈ 11.9 µM)

Values after ≈ are worked out from the molar mass of the structure shown. Where two headings read alike, the source gives them in different places.
